{"sequences": {"note": "Sequences of proteins named here, by UniProt entry; tags and fusion partners are left off. Residues count along the entry.", "UniProt P22748, 19-284 limits assumed": "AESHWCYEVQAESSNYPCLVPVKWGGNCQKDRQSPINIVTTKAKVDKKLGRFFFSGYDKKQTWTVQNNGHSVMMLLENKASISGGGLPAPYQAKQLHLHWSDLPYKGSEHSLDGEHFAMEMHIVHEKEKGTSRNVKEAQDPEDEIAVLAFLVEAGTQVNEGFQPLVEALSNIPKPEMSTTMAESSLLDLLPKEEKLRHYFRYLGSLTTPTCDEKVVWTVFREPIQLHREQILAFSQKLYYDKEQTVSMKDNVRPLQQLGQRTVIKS", "UniProt O43570, 25-354 limits assumed": "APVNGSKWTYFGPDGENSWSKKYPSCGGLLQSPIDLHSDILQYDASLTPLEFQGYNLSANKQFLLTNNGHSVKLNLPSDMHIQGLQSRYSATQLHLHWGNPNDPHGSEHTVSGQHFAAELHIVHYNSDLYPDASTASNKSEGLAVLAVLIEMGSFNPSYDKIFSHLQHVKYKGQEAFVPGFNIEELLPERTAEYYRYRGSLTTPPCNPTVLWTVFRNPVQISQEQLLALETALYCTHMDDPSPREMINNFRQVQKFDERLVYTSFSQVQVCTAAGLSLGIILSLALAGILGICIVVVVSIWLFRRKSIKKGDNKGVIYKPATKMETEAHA", "UniProt P00915, 2-261 limits assumed": "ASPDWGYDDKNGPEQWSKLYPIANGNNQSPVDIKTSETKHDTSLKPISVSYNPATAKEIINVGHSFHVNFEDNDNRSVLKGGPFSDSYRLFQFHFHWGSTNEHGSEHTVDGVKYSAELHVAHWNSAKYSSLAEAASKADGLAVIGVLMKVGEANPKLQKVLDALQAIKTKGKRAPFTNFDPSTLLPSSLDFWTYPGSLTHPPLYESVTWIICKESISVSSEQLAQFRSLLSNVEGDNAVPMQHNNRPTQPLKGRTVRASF"}, "source": "ChEMBL document CHEMBL4433208", "about": "“N-Nitrosulfonamides as Carbonic Anhydrase Inhibitors: A Promising Chemotype for Targeting Chagas Disease and Leishmaniasis” (ACS Med Chem Lett, 2019)", "key": {"Carbonic anhydrase 4": {"target": "Carbonic anhydrase 4 (Homo sapiens, UniProt P22748)", "experiment": "Inhibition of recombinant human carbonic anhydrase 4 preincubated for 15 mins by phenol red dye based stopped flow CO2 hydration assay"}, "Carbonic anhydrase 9": {"target": "Carbonic anhydrase 9 (Homo sapiens, UniProt Q16790)", "experiment": "Inhibition of recombinant human carbonic anhydrase 9 preincubated for 15 mins by phenol red dye based stopped flow CO2 hydration assay"}, "Carbonic anhydrase 12": {"target": "Carbonic anhydrase 12 (Homo sapiens, UniProt O43570)", "experiment": "Inhibition of recombinant human carbonic anhydrase 12 preincubated for 15 mins by phenol red dye based stopped flow CO2 hydration assay"}, "Carbonic anhydrase 2": {"target": "Carbonic anhydrase 2 (Homo sapiens, UniProt P00918)", "experiment": "Inhibition of recombinant human carbonic anhydrase 2 preincubated for 15 mins by phenol red dye based stopped flow CO2 hydration assay"}, "Carbonic anhydrase 1": {"target": "Carbonic anhydrase 1 (Homo sapiens, UniProt P00915)", "experiment": "Inhibition of recombinant human carbonic anhydrase 1 preincubated for 15 mins by phenol red dye based stopped flow CO2 hydration assay"}}}
{"smiles": "Nc1cc(S(=O)(=O)[N-][N+](=O)[O-])cc([N+](=O)[O-])c1O", "values": [{"measurement": "Ki", "setting": "Carbonic anhydrase 4", "result": 1.9, "unit": "µM"}, {"measurement": "Ki", "setting": "Carbonic anhydrase 9", "result": 5.2, "unit": "µM"}, {"measurement": "Ki", "setting": "Carbonic anhydrase 12", "result": 0.55, "unit": "µM"}, {"measurement": "Ki", "setting": "Carbonic anhydrase 2", "result": 45, "unit": "µM"}, {"measurement": "Ki", "setting": "Carbonic anhydrase 1", "result": 19.8, "unit": "µM"}]}
